Yeast mating assay 1: variants of the scFv Ab-14

Binding partner: SARS-CoV-2 spike HR2 peptide, sequence PDVDLGDISGINAS.

The variants keep the light chain, the linker and the frameworks of Ab-14 (scFv order VH, three GGGGS repeats, VL).
VH: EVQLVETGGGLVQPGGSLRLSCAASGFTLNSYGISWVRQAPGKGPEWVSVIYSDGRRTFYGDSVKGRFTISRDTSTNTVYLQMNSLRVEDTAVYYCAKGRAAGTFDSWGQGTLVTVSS
VL: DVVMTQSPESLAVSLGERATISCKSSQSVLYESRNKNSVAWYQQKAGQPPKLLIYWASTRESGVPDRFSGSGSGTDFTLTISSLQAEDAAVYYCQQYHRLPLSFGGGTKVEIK

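Library AAYL49 holds single substitutions and randomly drawn double and triple substitutions in the CDRs. AlphaSeq pools MATa yeast showing the antibodies with MATalpha yeast showing the peptide. After mating in shaken culture at 30 °C for 16 h, diploids were selected and their barcode pairs sequenced. Each replicate has its own calibration line, from reference interactions of the BCL2 family. The assay was run in three technical replicates.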

Substitutions are numbered in sequence along the VH above, starting at 1 (not Kabat).
Each Kd is an estimate from the mating assay, the geometric mean of the replicates in which the pair was seen; lower is stronger.
A pair that was not seen in any replicate is written "nd"; this usually means weak binding, but a binder can also be missed.

Y60T R100M G103R: nd (0 of 3 replicates; controls 1 of 9).
S53Y T58A: 330 nM (3 of 3 replicates; controls 1 of 9).
R57M Y60R A102Q: nd (0 of 3 replicates; controls 1 of 9).
I34G Y60L: nd (0 of 3 replicates; controls 2 of 9).
G26Y A102P S107L: 9.7 µM (1 of 3 replicates; controls 2 of 9).
F27K R56Y F59A: 9.2 nM (3 of 3 replicates; controls 2 of 9).
G26S S35M: 12 µM (1 of 3 replicates; controls 1 of 9).
I51Y Y60L: nd (0 of 3 replicates; controls 0 of 9).
I51K F59T D106S: nd (0 of 3 replicates; controls 0 of 9).
G33A I51F A101V: 130 µM (1 of 3 replicates; controls 0 of 9).
G61T A102F T104D: nd (0 of 3 replicates; controls 0 of 9).
G26H V50N A101Y: 360 µM (1 of 3 replicates; controls 3 of 9).
Y32E G55E A102D: 100 µM (2 of 3 replicates; controls 1 of 9).
I51G A101S A102H: 5.7 µM (2 of 3 replicates; controls 4 of 9).
I34C D54K R100E: 7.1 µM (1 of 3 replicates; controls 1 of 9).
S35D F59D: 670 nM (1 of 3 replicates; controls 3 of 9).
G26L S53P F59P: nd (0 of 3 replicates; controls 1 of 9).
F27I D62N K65L: 450 nM (3 of 3 replicates; controls 0 of 9).
G26M G55N F105N: nd (0 of 3 replicates; controls 1 of 9).
G26Y G103Q D106I: nd (0 of 3 replicates; controls 3 of 9).
S35N R57W G103N: nd (0 of 3 replicates; controls 0 of 9).
Y60M G99H G103P: 8.0 µM (1 of 3 replicates; controls 3 of 9).
G61K D62E G99I: nd (0 of 3 replicates; controls 1 of 9).
Y32R V50I G103Q: nd (0 of 3 replicates; controls 1 of 9).
S35V R56V: nd (0 of 3 replicates; controls 0 of 9).
I34V S53Y G61V: 1.1 mM (1 of 3 replicates; controls 5 of 9).
Y52T R100P T104D: 35 µM (1 of 3 replicates; controls 1 of 9).
R56H R100G G103I: 18 µM (1 of 3 replicates; controls 2 of 9).
G26Q V50S T58Y: 780 nM (1 of 3 replicates; controls 0 of 9).
N30R S53E R57H: nd (0 of 3 replicates; controls 0 of 9).
T28Y K65L A101I: 57 nM (3 of 3 replicates; controls 0 of 9).
I51N D54S T104G: nd (0 of 3 replicates; controls 0 of 9).
N30D S35C V64D: nd (0 of 3 replicates; controls 1 of 9).
V50H G99D S107P: 3.9 µM (1 of 3 replicates; controls 4 of 9).
R56I A102M S107T: 4.3 nM (3 of 3 replicates; controls 0 of 9).
N30R T58Q D62M: 63 µM (1 of 3 replicates; controls 3 of 9).
V50N S53M D106G: 4.4 µM (2 of 3 replicates; controls 3 of 9).
T58M D106W: 110 nM (3 of 3 replicates; controls 3 of 9).
T28W S35I I51W: 51 µM (2 of 3 replicates; controls 2 of 9).
G26L V50S G55P: nd (0 of 3 replicates; controls 0 of 9).
N30T K65Y F105T: 5.2 µM (1 of 3 replicates; controls 5 of 9).
T28D I51P R100A: nd (0 of 3 replicates; controls 3 of 9).
T28L S53E: nd (0 of 3 replicates; controls 3 of 9).
I34P A102L F105K: 22 µM (1 of 3 replicates; controls 3 of 9).
S31T G33W S35V: nd (0 of 3 replicates; controls 0 of 9).
N30K I51T Y52V: nd (0 of 3 replicates; controls 0 of 9).
T58C S63A A102P: 19 µM (1 of 3 replicates; controls 2 of 9).
S35L K65A: 17 µM (1 of 3 replicates; controls 5 of 9).
Y32I S53D G103A: nd (0 of 3 replicates; controls 0 of 9).

Top 6 of the variants detected in all replicates, tightest first:

changes	Kd (apparent)	detected	control signals
R56I A102M S107T	4.3 nM	3/3	0/9
F27K R56Y F59A	9.2 nM	3/3	2/9
T28Y K65L A101I	57 nM	3/3	0/9
T58M D106W	110 nM	3/3	3/9
S53Y T58A	330 nM	3/3	1/9
F27I D62N K65L	450 nM	3/3	0/9

Nonspecific signal, from three strains lacking the peptide, appeared in 15% of pairings of library AAYL49, centred on 11 µM (5% of these signals below 680 nM); values are not corrected for it. For each scFv, signals with the empty controls are counted beside the result.
For reference, the parent read 4.4 nM as the reference entry and 13 µM (one replicate of three) as a member of this library.

Data: MIT Lincoln Laboratory AlphaSeq set, Engelhart et al. 2022, doi:10.1038/s41597-022-01779-4, as distributed in FLAb.